Measured values reported in patent publication US11156615B2 (priority 2015, dated 2021).

What was measured:
[1] = Glucose binding: isothermal fluorescence titrations, ratiometric (appKd) and monochromatic (trueKd) fits; details: fit of ratiometric emission signal (figure legends)
Source text: 2 For a single glucose-binding site, the fractional saturation is given by
[formula] where ^apoIλ2 and ^satIλ2 are the emission intensities of the monochromatic signal at wavelength λ2 of the ligand-free and ligand-bound protein, respectively.

[2] = Glucose-dependent fluorescence emission intensity spectra of conjugates (Nanodrop3300); type: biochemical; details: isochromic / hypsochromic / bathochromic
Source text: Semi-synthetic FRSs were engineered by site-specifically attaching thiol-reactive, environmentally sensitive fluorophores that respond to ligand-mediated conformational changes. Identification of FRS candidates that are useful for sensing applications comprises three steps: • 1. Cysteine scan. Mutant glucose-binding proteins containing single cysteines are constructed for site-specific attachment of thiol-reactive fluorophores. […] Candidate positions fall into three classes: endosteric, replacing a residue that contacts the ligand directly; peristeric, located at the rim of the binding site; allosteric (Marvin et al. 1997 Proc Natl Acad Sci USA, 94, 4366-71; Marvin 1998 J Am Chem Soc, 120, 7-11), located outside the binding site at sites that undergo local structural changes in concert with the hinge-bending motion. • 2. Fluorophore screening. Thiol-reactive, environmentally sensitive fluorophores are attached to each cysteine mutant prepared in step 1. • 3. Evaluation of the glucose-mediated change of all the fluorescent conjugates prepared in step 2. Responses to ligand binding in which there is both a change in fluorescence emission intensity and spectral shape was essential for chemometric applications, because such changes enable ratiometric measurements. Changes in spectral shape typically are accompanied by a shift in the wavelength of the emission intensity maxima. […]

Kd [1]	direction of emission wavelength shift upon glucose binding [2]	Substance
1000 µM	hypsochromic	16C⋅Acrylodan: E. coli GGBP F16C mutant Acrylodan conjugate
400 µM	hypsochromic	16C⋅Badan: E. coli GGBP F16C mutant Badan conjugate
